According to patent US9320734B2, “Small molecule inhibitors of the pleckstrin homology domain and methods for using same” (Board of Regents, The University of Texas System, priority 2008, dated 2016):
Where two headings read alike, the source gives them in different places.

Protein sequences, listed by entry. Tags and fused reporters are not part of them. Residues count along the entry.
UniProt O15530, 459-550: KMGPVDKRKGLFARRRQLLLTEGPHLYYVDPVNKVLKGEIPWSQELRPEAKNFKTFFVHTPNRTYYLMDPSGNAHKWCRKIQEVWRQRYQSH

Assays:
BxPC-3 pancreatic cancer = experiment: Antitumor activity, oral dosing, BxPC-3 xenograft; assay type: in vivo, scid mice; details: 125 to 250 mg/kg, in the most sensitive tumors
[1] = tested on: MCF-7 human breast cancer xenografts; experiment: Compound 104 alone or with paclitaxel, MCF-7 xenografts; assay type: in vivo, scid mice; details: 104 200 mg/kg orally twice per day for 10 days; paclitaxel 10 mg/kg i.p. every other day for 5 doses
Description: Female scid mice with a s.c. implanted 60 day estradiol release pellets were injected s.c. with 10^7 MCF-7 human breast cancer cells. When the tumors reached about 10 mm^3 the mice were statified into groups of 8 mice and dosing was satrted on day 13 as indicated by the arrow (⇑) in FIG. 11.

[2] = tested on: BxPC-3 pancreatic cancer xenografts; details: 125 mg/kg i.p., twice a day for 5 d
[3] = tested on: UVB-induced AKT phosphorylation in HaCaT cells and HaCaT-II,4 cells
HaCaT cells = experiment: cells; details: Homo sapiens, 72 h, read-out: cell survival IC50
HaCat-II,4 cells = experiment: cells; details: Homo sapiens, 72 h, read-out: cell survival IC50
[4] = tested on: phospho-Ser473-AKT in MiaPaCa-2 cells; experiment: Cellular AKT inhibition, Western blot phospho-Ser473-AKT, MiaPaCa-2 cells; details: Homo sapiens, MIA PaCa-2, read-out: pAKT inhibition (IC50), MiaPaca-2, Western blots phospho-Ser473-AKT
PH domain of PDK1 = PH domain of PDK1 (Homo sapiens (Human), UniProt O15530); experiment: SPR direct binding to PDK1 PH domain; details: NB = no measurable binding, read-out: PDK1 PH mKD

Kd (PH domain of PDK1) | Compound | inhibition of tumor growth (BxPC-3 pancreatic cancer) | antitumor activity [1] | anti-tumor activity [2] | UVB-induced AKT phosphorylation ([3]; 1 μM and 5 μM, UV-B 250 J/m2) | UVB-induced AKT phosphorylation ([3]; 10 μM and 20 μM, UV-B 250 J/m2, both cell lines) | IC50 (HaCaT cells) | IC50 (HaCat-II,4 cells) | IC50 [4]
– | CCCCCCCCCCCCc1ccc(S(=O)(=O)Nc2nncs2)cc1 [Compound 104, 4-Dodecyl-N-(1,3,4-thiadiazol-2-yl)benzenesulfonamide] | up to 80% | inhibited tumor growth | Significant anti-tumor activity with cessation of tumor growth and even regression | did not appear to affect | reduced UVB-induced AKT phosphorylation | ~40 µM | ~60 µM | 10 µM
0.17 ± 0.1 µM | CC1=NN(C(=O)c2ccccc2)C(=O)C1/N=N/c1ccc(S(=O)(=O)Nc2ncccn2)cc1 (stereo not drawn) [Compound 331] | – | – | – | – | – | – | – | –
